Reference: patent US7422887B2, “Phospholipase A2 and gene thereof” (dated 2008)

Sequences of proteins named here, by UniProt entry; tags and fusion partners are left off. A change or cut given only in a name is not applied to a line headed by its entry.
UniProt P47712: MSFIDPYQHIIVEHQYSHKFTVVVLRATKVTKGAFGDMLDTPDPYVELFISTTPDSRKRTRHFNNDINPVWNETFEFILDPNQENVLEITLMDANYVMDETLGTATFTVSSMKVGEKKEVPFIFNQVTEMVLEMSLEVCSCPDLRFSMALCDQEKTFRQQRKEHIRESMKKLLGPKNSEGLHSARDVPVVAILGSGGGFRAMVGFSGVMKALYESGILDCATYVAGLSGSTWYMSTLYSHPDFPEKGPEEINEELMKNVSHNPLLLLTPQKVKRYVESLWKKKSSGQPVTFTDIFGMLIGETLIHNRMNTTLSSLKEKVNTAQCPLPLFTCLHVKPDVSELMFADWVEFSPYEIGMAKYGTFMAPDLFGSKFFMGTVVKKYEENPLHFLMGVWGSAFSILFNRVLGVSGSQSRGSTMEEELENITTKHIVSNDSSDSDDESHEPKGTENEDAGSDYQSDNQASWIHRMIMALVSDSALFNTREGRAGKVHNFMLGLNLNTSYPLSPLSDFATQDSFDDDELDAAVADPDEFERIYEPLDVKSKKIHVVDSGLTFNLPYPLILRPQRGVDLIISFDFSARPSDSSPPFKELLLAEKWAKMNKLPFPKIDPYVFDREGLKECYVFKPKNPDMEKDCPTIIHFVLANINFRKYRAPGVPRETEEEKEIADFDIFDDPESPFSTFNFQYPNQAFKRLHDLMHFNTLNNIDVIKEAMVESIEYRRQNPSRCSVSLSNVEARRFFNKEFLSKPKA
UniProt Q86XP0: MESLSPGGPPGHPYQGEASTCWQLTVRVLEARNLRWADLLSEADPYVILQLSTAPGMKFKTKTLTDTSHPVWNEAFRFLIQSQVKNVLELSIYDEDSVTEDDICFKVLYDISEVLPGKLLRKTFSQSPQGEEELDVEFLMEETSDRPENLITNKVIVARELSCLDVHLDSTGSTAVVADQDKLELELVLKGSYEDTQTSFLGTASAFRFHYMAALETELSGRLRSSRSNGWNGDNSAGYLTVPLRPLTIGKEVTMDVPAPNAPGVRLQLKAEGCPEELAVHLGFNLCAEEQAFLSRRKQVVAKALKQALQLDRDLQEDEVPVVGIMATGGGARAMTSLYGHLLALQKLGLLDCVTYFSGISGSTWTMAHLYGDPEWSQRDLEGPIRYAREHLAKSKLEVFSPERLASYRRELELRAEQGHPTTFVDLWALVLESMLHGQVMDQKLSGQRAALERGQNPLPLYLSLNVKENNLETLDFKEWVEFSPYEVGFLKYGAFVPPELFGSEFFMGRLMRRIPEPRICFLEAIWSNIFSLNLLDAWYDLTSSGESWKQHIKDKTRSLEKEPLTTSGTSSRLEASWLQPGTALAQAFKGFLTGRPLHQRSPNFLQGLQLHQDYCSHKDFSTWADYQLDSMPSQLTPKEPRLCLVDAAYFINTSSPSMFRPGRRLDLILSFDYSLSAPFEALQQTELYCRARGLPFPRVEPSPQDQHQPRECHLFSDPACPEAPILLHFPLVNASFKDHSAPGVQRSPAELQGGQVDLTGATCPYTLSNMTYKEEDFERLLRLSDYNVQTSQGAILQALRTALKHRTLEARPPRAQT

What was measured:
[1] = target: cPLA2α (Homo sapiens, UniProt P47712); experiment: Inhibitory action on phospholipase A2 activity of cPLA2α (same method as for GS21015)
[2] = target: GS21015 (Homo sapiens, UniProt Q86XP0, P10T); experiment: Inhibitory action on phospholipase A2 activity of GS21015 (release of [14C]arachidonic acid from 1-palmitoyl-2-arachidonyl-phosphatidylcholine)

## arachdinyl trifluoromethyl ketone
[1]
  IC50: < 10 µM
[2]
  IC50: > 45 µM
